From patent US20260209193A1, “NOVEL INHIBITORS OF DNA DAMAGE RESPONSES FOR CANCER THERAPY” (The Regents of the University of California, priority 2022, published 2026)

Amino acid sequences for entries named in this document (tags omitted).
UniProt P09874, whole entry, species assumed: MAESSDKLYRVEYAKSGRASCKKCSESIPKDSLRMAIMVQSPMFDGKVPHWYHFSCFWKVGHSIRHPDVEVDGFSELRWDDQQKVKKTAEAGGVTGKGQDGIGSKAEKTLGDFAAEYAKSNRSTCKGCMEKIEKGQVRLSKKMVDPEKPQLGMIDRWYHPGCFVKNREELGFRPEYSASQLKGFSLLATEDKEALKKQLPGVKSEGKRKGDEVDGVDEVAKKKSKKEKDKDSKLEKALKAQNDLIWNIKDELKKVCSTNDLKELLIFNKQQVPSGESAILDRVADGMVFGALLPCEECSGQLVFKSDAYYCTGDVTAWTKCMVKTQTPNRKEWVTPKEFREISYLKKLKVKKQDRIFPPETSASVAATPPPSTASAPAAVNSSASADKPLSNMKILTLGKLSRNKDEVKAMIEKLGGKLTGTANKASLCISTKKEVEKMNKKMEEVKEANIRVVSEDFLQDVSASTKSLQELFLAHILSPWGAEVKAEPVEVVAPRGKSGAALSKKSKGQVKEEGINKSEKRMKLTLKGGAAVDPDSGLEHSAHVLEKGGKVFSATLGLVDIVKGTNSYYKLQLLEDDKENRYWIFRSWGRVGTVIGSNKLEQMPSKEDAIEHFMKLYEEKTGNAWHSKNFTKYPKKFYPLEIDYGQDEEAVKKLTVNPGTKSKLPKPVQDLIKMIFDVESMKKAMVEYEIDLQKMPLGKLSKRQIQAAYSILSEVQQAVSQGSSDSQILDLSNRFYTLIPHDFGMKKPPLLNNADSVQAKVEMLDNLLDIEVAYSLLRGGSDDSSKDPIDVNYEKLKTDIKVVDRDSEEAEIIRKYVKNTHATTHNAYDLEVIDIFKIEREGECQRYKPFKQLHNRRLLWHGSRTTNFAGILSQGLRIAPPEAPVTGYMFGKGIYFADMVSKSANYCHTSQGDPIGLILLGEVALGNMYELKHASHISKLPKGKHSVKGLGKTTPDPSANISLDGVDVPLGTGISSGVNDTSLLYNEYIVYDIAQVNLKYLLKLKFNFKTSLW

Biological target: T1, PARP1 (Homo sapiens, UniProt P09874)
T1 construct: endogenous in cells; host or cells: PC3
Test: PARP1 trapping, chromatin fractionation (chromatin-bound fraction)
Assay type: cell-based
Conditions: HR-deficient SUM149PT-BRCA1mut, UWB1, C4-2B/MR compared with HR-proficient SUM149PT-BRCA1rev, UWB1+BRCA1, PC3; 0.01% MMS
Excerpt: The trapped PARP1 forms a toxic lesion and stalls the progress of replication forks. The replication fork collapses in BRCA1/2-deficient cancer cells, and then results in cell death. […] Six cancer cell lines were used in this assay, including two breast cancer cell lines, BRCA1-mutunt SUM149PT-BRCA1mut and SUM149PT-BRCA1rev where deleterious BRCA1 mutation is reverted to form a functional BRCA1, two ovarian cancer cell lines, BRCA1-null UWB1.289 and UWB1.289+BRCA1, a stable cell line in which wild-type BRCA1 function has been restored, and two prostate cancer cell lines, enzalutamide resistant C4-2B/MR which is homologous recombination (HR)-deficient due to Rad51 mutation, and enzalutamide insensitive PC3 which is HR-proficient.

Cn1ncnc1[C@H]1c2n[nH]c(=O)c3cc(F)cc(c23)N[C@@H]1c1ccc(F)cc1 [TALA, Talazoparib, reference compound]
accumulation of PARP1 protein in the chromatin-bound fraction: greatly increased accumulation of PARP1 protein in the chromatin-bound fraction
